# From US20250003968A1, “ACTIVITY-BASED CELL SORTING” (MASSACHUSETTS INSTITUTE OF TECHNOLOGY, priority 2021, published 2025)
# Test system: Eml4-Alk tumors
# Experiment: Alectinib treatment in the Eml4-Alk model (lung histology)
# Type: in vivo, mouse
# Settings: two-week treatment course, 20 mg/kg daily oral gavage
smiles,measurement,value
CCc1cc2c(cc1N1CCC(N3CCOCC3)CC1)C(C)(C)c1[nH]c3cc(C#N)ccc3c1C2=O [alectinib],tumor regression,rapid and robust tumor regression
